Reference: PubChem BioAssay (NCI)
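These data come from cells grown in 96-well plates and exposed to compound for 48 hours at five concentrations. GI50 is the concentration that inhibits growth by half. TGI is the concentration that stops growth completely.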

Tests used:
Test in all cases: NCI-60 cell line screen, 48 h
[1] = system: 786-0 renal
[2] = system: A549 NSCLC
[3] = system: ACHN renal
[4] = system: BT-549 breast
[5] = system: CAKI-1 renal
[6] = system: CCRF-CEM leukemia
[7] = system: COLO 205 colon
[8] = system: DU-145 prostate
[9] = system: EKVX NSCLC
[10] = system: HCT-116 colon
[11] = system: HCT-15 colon
[12] = system: HL-60(TB) leukemia
[13] = system: HOP-62 NSCLC
[14] = system: HS 578T breast
[15] = system: HT29 colon
[16] = system: KM12 colon
[17] = system: LOX IMVI melanoma
[18] = system: M14 melanoma
[19] = system: MALME-3M melanoma
[20] = system: MCF7 breast
[21] = system: MDA-MB-435
[22] = system: MDA-N
[23] = system: MOLT-4 leukemia
[24] = system: NCI-H226 lung
[25] = system: NCI-H23 lung
[26] = system: NCI-H522 lung
[27] = system: NCI/ADR-RES ovarian
[28] = system: OVCAR-3 ovarian
[29] = system: OVCAR-4 ovarian
[30] = system: OVCAR-5 ovarian
[31] = system: OVCAR-8 ovarian
[32] = system: PC-3 prostate
[33] = system: RPMI-8226 leukemia
[34] = system: RXF 393 renal
[35] = system: SF-268 CNS
[36] = system: SF-295 CNS
[37] = system: SF-539 CNS
[38] = system: SK-MEL-2 melanoma
[39] = system: SK-MEL-28 melanoma
[40] = system: SK-MEL-5 melanoma
[41] = system: SK-OV-3 ovarian
[42] = system: SN12C renal
[43] = system: SNB-19 CNS
[44] = system: SNB-75 CNS
[45] = system: SR leukemia
[46] = system: SW-620 colon
[47] = system: T-47D breast
[48] = system: TK-10 renal
[49] = system: U251 CNS
[50] = system: UACC-257 melanoma
[51] = system: UACC-62 melanoma
[52] = system: UO-31 renal

O=C(CCN1CCCC(O)C1COC(=O)C(O)(c1ccccc1)c1ccccc1)NCc1ccccc1 (stereo not drawn)
TGI [1]: 84.8 µM | TGI [2]: > 100 µM | TGI [3]: > 100 µM | TGI [4]: 50 µM | TGI [5]: > 100 µM | TGI [6]: 71.8 µM | TGI [7]: 33.8 µM | TGI [8]: > 100 µM | TGI [9]: > 100 µM | TGI [10]: 47 µM | TGI [11]: > 100 µM | TGI [12]: 32.9 µM | TGI [13]: 36 µM | TGI [14]: 59 µM | TGI [15]: 43.2 µM | TGI [16]: 85.9 µM | TGI [17]: 30.4 µM | TGI [18]: 45.8 µM | TGI [19]: 31.8 µM | TGI [20]: > 100 µM | TGI [21]: > 100 µM | TGI [22]: > 100 µM | TGI [23]: 65.2 µM | TGI [24]: > 100 µM | TGI [25]: > 100 µM | TGI [26]: 29.7 µM | TGI [27]: > 100 µM | TGI [28]: > 100 µM | TGI [29]: > 100 µM | TGI [30]: > 100 µM | TGI [31]: > 100 µM | TGI [32]: 67.2 µM | TGI [33]: 41.5 µM | TGI [34]: 30.5 µM | TGI [35]: 64.7 µM | TGI [36]: 39.1 µM | TGI [37]: 34.4 µM | TGI [38]: 29.4 µM | TGI [39]: 30.7 µM | TGI [40]: 29.3 µM | TGI [41]: 73.7 µM | TGI [42]: > 100 µM | TGI [43]: 99.6 µM | TGI [44]: 84 µM | TGI [45]: 42.4 µM | TGI [46]: > 100 µM | TGI [47]: 79.6 µM | TGI [48]: > 100 µM | TGI [49]: > 100 µM | TGI [50]: 28.4 µM | TGI [51]: 60.7 µM | TGI [52]: 49.4 µM

COc1ccc(O)c2c(=O)c3c(OC)cc4c(c3oc12)[C@@H]1C=CO[C@@H]1O4
GI50 [33]: 6.44 µM
